Here are results for seven molecules from patent US20060229299A1, “5ht2c Receptor antagonists in the treatment of schizophrenia” (priority 2003, published 2006).

By UniProt entry, the sequences of proteins in these tests, tags left out.
UniProt P21917, whole entry: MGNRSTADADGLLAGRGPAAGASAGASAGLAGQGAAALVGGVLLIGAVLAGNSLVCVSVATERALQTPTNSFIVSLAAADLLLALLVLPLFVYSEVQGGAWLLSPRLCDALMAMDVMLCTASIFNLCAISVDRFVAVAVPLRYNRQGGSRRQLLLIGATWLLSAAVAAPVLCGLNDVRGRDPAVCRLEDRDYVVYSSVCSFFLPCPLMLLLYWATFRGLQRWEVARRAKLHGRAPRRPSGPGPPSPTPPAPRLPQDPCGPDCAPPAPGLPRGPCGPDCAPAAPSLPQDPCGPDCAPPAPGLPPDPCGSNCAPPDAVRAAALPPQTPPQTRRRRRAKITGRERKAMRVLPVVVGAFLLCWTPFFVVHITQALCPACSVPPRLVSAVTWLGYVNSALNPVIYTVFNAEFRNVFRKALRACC

For assay [1], the system named is 5-HT2C receptor relative to 5-HT2A and D2 receptors. As to the kind of experiment: Relative 5-HT2C affinity (formula I, sum of 5-HT2C/5-HT2A and 5-HT2C/D2 affinity ratios).
A further assay relates to 5-HT2C/D2. Kind of assay: 5-HT2C/D2 receptor affinity ratio. As to conditions: Table 2; affinity ratio from data of Table 1.
In another assay the test system is 5-HT2C/5-HT2A. Kind of assay: 5-HT2C/5-HT2A receptor affinity ratio. As to conditions: Table 2; affinity ratio from data of Table 1.
The next assay relates to 5-HT2A/D2. Kind of assay: 5-HT2A/D2 receptor affinity ratio. The settings on record: Table 2; affinity ratio from data of Table 1.
The target in a further assay is D4 dopamine receptor (Homo sapiens, UniProt P21917). The settings on record: cited from earlier work.
Where [2] appears, read: Table 2, sum of affinity ratios from data of Table 1.

Take `O=C(CCCN1CCC(O)(c2ccc(Cl)cc2)CC1)c1ccc(F)cc1` [Haloperidol]: the “(2C/2A) + (2C/D2)” value in assay [1] (setting [2]) turned out to be 1.37.

As to `Cc1nc2n(c(=O)c1CCN1CCC(c3noc4cc(F)ccc34)CC1)CCCC2` [Risperidone], the “(2C/2A) + (2C/D2)” value in assay [1] (setting [2]) and in assay [1] (Table 4B) was 1.69 in each case.

As for `CCN1CCCC1CNC(=O)c1cc(S(N)(=O)=O)ccc1OC` (stereo not drawn) [Sulpiride], the “(2C/2A) + (2C/D2)” value in assay [1] (setting [2]) is <1.65.

With `CN(C)CCCN1c2ccccc2Sc2ccc(Cl)cc21` [Chlorpromazine], the “(2C/2A) + (2C/D2)” value in assay [1] (setting [2]) came to 1.75.

For `CN1CCN(CC/C=C2/c3ccccc3Sc3ccc(S(=O)(=O)N(C)C)cc32)CC1` [Thiothixene], in the assay on 5-HT2C/D2, the “5-HT2C/D2 (2C/D2)” value turned out to be 0.63. Also, the “5-HT2C/5-HT2A (2C/2A)” value with 5-HT2C/5-HT2A was 0.79. Besides, in the assay with 5-HT2A/D2, the 5-HT2A/D2 came to 0.79.

Consider `CSc1ccc2c(c1)N(CCC1CCCCN1C)c1ccccc1S2` (stereo not drawn) [Thioridazine], for which the “(2C/2A) + (2C/D2)” value in assay [1] (setting [2]) was 1.72.

As to `OCCOCCN1CCN(C2=Nc3ccccc3Sc3ccccc32)CC1`, the “D4 affinity value (−logKi)” value at D4 dopamine receptor is on record as 5.8^6. Besides, the “(2C/2A) + (2C/D2)” value in assay [1] (setting [2]) and in assay [1] (Table 4B) was 1.73 throughout.
